{"source": "patent US20170071975A1", "about": "“COMPOSITIONS AND METHODS FOR TREATING DEPRESSIVE DISORDERS” (Steerwasher, LLC, priority 2014, published 2017)", "key": {"[1]": {"test_system": "patients with treatment-resistant depression", "assay": "Blinded, randomized placebo-controlled crossover trial; 21-point Hamilton Depression Rating Scale (HDRS/HRDS)", "type": "in vivo, human", "text": "(§1) Primary endpoint was the change on the 21-point Hamilton Depression Rating Scale (HRDS).\n(§2) This study was designed as a randomized, placebo-controlled crossover pilot clinical trial. […] The order of the session was randomly assigned by a random number generator. Other than the gas mixture administered, both sessions were indistinguishable from each other in setting, setup, and monitoring.\nPatients were recruited from an existing database of treatment-resistant depression patients administered by the Washington University Department of Psychiatry as well as from the “Volunteers for Health” patient pool within the Washington University School of Medicine. […] Patients were instructed not to suspend their standard of care treatment for major depression. Patients were required to maintain a stable medication regiment without changes for 4 weeks prior to initiation of the study and continue on the same dose throughout.\n(§3) The gas mix was administered via a standard anesthesia facemask through tubing connected to an anesthesia machine. A small sample connector line was inserted into the facemask allowing the measurement of inhaled and exhaled gas concentrations. Total gas flow was between 4-8 L/min. Patients were monitored during and after the treatment according to American Society of Anesthesiologists standard which includes continuous 3-lead ECG, pulsoximetry, non-invasive blood pressure and end-tidal CO2 under the supervision of an attending-level anesthesiologists. After the one-hour treatment session, patients were transferred and monitored for 2 hours. A study team physician determined if the patients met criteria for discharge before patients were discharged.\n(§4) Outcomes were assessed at six time points for each patient (three per session; two sessions): within each session at baseline, 2 hours, and 24 hours after treatment. Primary study endpoint was the change on the 21-point Hamilton Depression Rating Scale (HDRS). Secondary endpoints included a change on the Quick Inventory of Depressive Symptoms Self Report (QIDS-SR) scale. At baseline, the Brief Psychiatric Rating Scale (BPRS) was also administered. Psychiatric safety endpoints were assessed via standard scales for psychosis and the Columbia suicide scale. Other safety endpoints included cardiovascular, respiratory and central nervous system adverse events determined by hemodynamic and respiratory monitoring.\nThe primary outcome was analyzed with a mixed effects repeated measures linear model that included three interactions (treatment; time; randomization group) using restricted maximum likelihood estimation.\nFor the analysis of paired data, such as the levels of HRDS, we used the Wilcoxon signed-rank test. To compare the rates of treatment responses and remissions between the two treatments and using the paired data structure, an exact binomial test was used (and corresponding odds ratios calculated) as the number of discordant pairs was <20. Data are presented as mean±SD or 95% confidence intervals, or as median and interquartile range. Because this is the first in-human patient pilot study, no prior knowledge existed for adequate sample size determination. […] JMP Pro 11.1 and SAS 9.3 (SAS Institute, Cary, N.C.), as well as Prism 6.04 (GraphPad Software, Inc., La Jolla, Calif.) were used for the statistical analysis and graphing."}, "[2]": {"test_system": "patients with treatment-resistant depression", "assay": "Same crossover trial; Quick Inventory of Depressive Symptoms Self Report (QIDS-SR) scale", "type": "in vivo, human", "details": "Table 4", "experimental": "as §1, §2, §3, §4"}}, "note": "Entries after “also recorded” stand apart in the source; their conditions may differ.", "data": [{"smiles": "[N-]=[N+]=O", "note": "[nitrous oxide]", "values": [{"measurement": "odds ratio of remission, nitrous oxide vs placebo", "setting": "[1]; 24 hours after treatment, 95% CI 0.31-28.8", "result": 3.0}, {"measurement": "odds ratio of treatment response, nitrous oxide vs placebo", "setting": "[1]; 24 hours after treatment, 95% CI 0.45-35.79", "result": 4.0}, {"measurement": "patients with full remission (complete resolution of depressive symptoms, HRDS <7 points)", "setting": "[1]; 24 hours, 20 patients", "result": "Three"}, {"measurement": "patients with treatment response (reduction in depressive symptoms >50% on the HRDS)", "setting": "[1]; 24 hours, 20 patients", "result": "four and Four"}, {"measurement": "1 week HRDS scores compared to baseline", "setting": "[1]; first treatment session, 1 week after treatment, in words", "result": "significantly lower than at baseline"}, {"measurement": "antidepressant effect / reduction in depressive symptoms compared to placebo", "setting": "[1]; in words", "result": "rapid and marked antidepressant effects; also recorded: significantly more pronounced reduction in depressive symptoms; also recorded: significantly stronger reduction in depressive symptoms"}, {"measurement": "onset of antidepressant action", "setting": "[1]; in words", "result": "within two hours"}, {"measurement": "response on the QIDS scale: change 0 (patients)", "setting": "[2]", "result": "10/20"}, {"measurement": "response on the QIDS scale: change of 1 level, first arrow (P00003, presumably worse) (patients)", "setting": "[2]", "result": "2/20"}, {"measurement": "response on the QIDS scale: change of 1 level, second arrow (P00004, presumably better) (patients)", "setting": "[2]", "result": "3/20"}, {"measurement": "response on the QIDS scale: change of 2 levels, second arrow (P00004, presumably better) (patients)", "setting": "[2]", "result": "5/20"}]}]}
